Measurements: US20160303258A1, “COMPOUNDS AND COMPOSITIONS FOR IMAGING GCC-EXPRESSING CELLS” (MILLENNIUM PHARMACEUTICALS, INC., priority 2013, published 2016)
pEC50, pIC50: −log10 of the molar value. Values after ≈ are worked out from the molar mass of the structure shown. Like-named read-outs stand apart in the source and are kept apart here.

Chains of the proteins cited; added tags and fusions are not shown. Residues count along the entry.
UniProt P25092, 24-1073: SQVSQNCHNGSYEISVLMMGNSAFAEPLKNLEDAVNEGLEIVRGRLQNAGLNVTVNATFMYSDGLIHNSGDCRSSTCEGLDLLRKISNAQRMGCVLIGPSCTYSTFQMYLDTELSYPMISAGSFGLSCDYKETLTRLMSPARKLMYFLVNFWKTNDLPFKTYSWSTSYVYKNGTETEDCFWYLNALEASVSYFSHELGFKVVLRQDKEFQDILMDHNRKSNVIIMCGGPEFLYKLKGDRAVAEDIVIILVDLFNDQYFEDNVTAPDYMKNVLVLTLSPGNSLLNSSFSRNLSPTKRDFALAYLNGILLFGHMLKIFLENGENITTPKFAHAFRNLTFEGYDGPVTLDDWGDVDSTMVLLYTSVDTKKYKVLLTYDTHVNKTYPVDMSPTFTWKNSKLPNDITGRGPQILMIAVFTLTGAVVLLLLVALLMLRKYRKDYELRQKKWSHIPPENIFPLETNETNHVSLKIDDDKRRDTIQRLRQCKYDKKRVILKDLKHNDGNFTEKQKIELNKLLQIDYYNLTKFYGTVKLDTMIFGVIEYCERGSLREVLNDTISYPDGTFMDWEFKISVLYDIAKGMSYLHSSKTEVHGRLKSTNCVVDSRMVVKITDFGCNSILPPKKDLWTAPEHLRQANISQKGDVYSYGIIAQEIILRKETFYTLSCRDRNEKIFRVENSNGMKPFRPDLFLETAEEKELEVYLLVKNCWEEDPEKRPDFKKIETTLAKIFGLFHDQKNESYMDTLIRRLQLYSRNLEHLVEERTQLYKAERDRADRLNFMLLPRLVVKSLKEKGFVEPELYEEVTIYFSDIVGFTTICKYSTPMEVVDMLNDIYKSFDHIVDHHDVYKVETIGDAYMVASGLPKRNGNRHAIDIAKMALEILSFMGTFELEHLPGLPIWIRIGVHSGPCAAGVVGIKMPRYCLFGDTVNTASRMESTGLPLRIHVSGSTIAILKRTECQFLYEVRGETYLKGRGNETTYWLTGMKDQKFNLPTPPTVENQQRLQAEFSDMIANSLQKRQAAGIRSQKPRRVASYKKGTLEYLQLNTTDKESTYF

Experiments:
[1] = Solubility of bulk DSP1; type: physicochemical
Protocol: Bulk DSP1 has a low solubility of about 0.1 mg/ml, and an aqueous solution formulation was developed. This aqueous formulation is referred to as DSP2. Solubility could be increased in several ways. […] This can be seen in FIG. 3A, where increasing the ethanol concentration increases solubility of DSP1. Ethanol can also enhance labeling efficiency. […] However, this advantage in solubility is offset by the decrease in labeling efficiency at higher pHs, as shown in the following section. Third, heat and mechanical mixing improved solubility.

[2] = GLP-compliant 2-week repeat-dose toxicology study in rats; type: in vivo, Sprague-Dawley rats
From the text: (§1) MLN6907 DSP had no effect on central nervous system (CNS), cardiovascular (CV), or respiratory safety pharmacology endpoints evaluated in the GLP-compliant, 2-week, repeat-dose toxicology studies in Sprague-Dawley rats and cynomolgus monkeys.
(§2) The toxicology studies with MLN6907 DSP were designed to address the target tissues for toxicity, the dose-limiting toxicity, noninvasive methods for monitoring of clinically relevant toxicities, and the reversibility of adverse effects. Both rats and monkeys are pharmacologically responsive to the effects of the STp(5-18) peptide portion of MLN6907.
(§3) These studies support that, as a result of anatomic privilege, the normal intestine will not be a target for [68Ga]MLN6907 DP. In both studies, the no-observed-effect level (NOEL) was 0.25 mg/kg.
(§4) Toxicokinetics (TK) and immunogenicity of the MLN6907 DSP were evaluated as part of the GLP-compliant, 2-week, repeat-dose toxicology studies. There were no marked sex-related differences in exposure to MLN6907 DSP in Sprague-Dawley rats or cynomolgus monkeys. […] The immunogenicity of the peptide component of MLN6907 was assessed by measuring rat and monkey antipeptide antibodies (rodent antipeptide antibody [RAPA] and primate antipeptide antibody [PAPA]). Briefly, antipeptide antibodies were detecting using FITC-STa and biotinylated-STa combined to capture anti-STa antibodies, then incubated and washed, followed by detection of the bound antibody with Streptavidin-Sulfo tag.
(§5) Local tolerance of decayed nonradioactive [^68Ga]MLN6907 DP and MLN6907 DSP was evaluated using an in vitro hemolysis assay and as part of the GLP-compliant 2-week, repeat-dose toxicology studies, respectively.

[3] = Blood pharmacokinetics in mouse model; type: in vivo; conditions: intravenous; mouse model, blood clearance through renal excretion; read-out: t1/2 in blood
Protocol: FIG. 15. […] The y axis is the injected dose (% ID) per gram of tissue. In all three systems tested, blood clearance of the compound is rapid.
The KD of MLN6907 for cell-surface GCC was calculated using an in vitro competitive binding assay with HEK-293 GCC clone 2 cells (FIG. 13). Antigen surface density of GCC on HEK-293 GCC clone 2 cells was estimated in vitro by Western blotting, and in vivo in the mouse model (FIG. 16). Decreased [68Ga]MLN6907 uptake in the tumor results from GCC receptor competition from added unlabeled peptide. […] The tumor uptake of [^68Ga]MLN6907 differed in tumors with varying levels of GCC expression and phenotype and is reflected in the initial in vivo calculated Bmax values.

[4] = GLP-compliant 2-week repeat-dose toxicology study in monkeys; type: in vivo, cynomolgus monkeys
From the text: as §1, §2, §3, §4, §5

[5] = biological target: T1, GCC (Homo sapiens, UniProt P25092); assay: In vitro competitive binding assay, displacement of [111In]MLN6907 in HEK-293 GCC Clone 2 cells; design: expressed in transfected cells; host or cells: HEK-293 GCC Clone 2 (GCC-expressing HEK-293 cells)
Protocol: In an in vitro competitive binding assay to evaluate the effects of the ^68GaCl3 chelation reaction labeling conditions (mixing with acetone: HCl [98:2] and heating at approximately 100° C. for 10 minutes) on [^68Ga]MLN6907 DP (drug product) GCC affinity. […] The competition for binding to the ligand (GCC) and concomitant percentage displacement of radiolabeled [^111In]MLN6907 after the addition of increasing concentrations (8.5×10^−6 to 500 nM) of cold peptide (untreated or treated MLN6907 DSP) was calculated by measuring the final radioactivity in the cells using a gamma counter. […] The difference in affinity between untreated and treated MLN6907 DSP was not significant (p>0.05).

[6] = biological target: T1, GCC; assay: In vivo competitive binding and biodistribution in tumor xenograft models; design: endogenous in cells; species or system mice
From the text: Female CB-17 severe combined immunodeficient (SCID) mice bearing cell line or primary tumor derived xenografts were used to assess competitive binding and biodistribution of [^68Ga]MLN6907 DP in vivo. Four xenograft models that express different levels of GCC were used. Two models were derived from cell lines: HEK-293 GCC Clone 2 (human embryonic kidney) and T84 (colon carcinoma), and two models were primary colon adenocarcinoma human tumor models: PHTX-21C and PHTX-17C. In the mice, tumor cells or fragments and tumors were allowed to grow until reaching a volume of 200 to 700 mm^3. GCC expression level, previously determined by IHC using a scoring system of 0-300 (H-score [apical and cytoplasmic]) to indicate GCC concentration in a separate set of tumor samples, as 300 and 270, 0 and 300, and 40 and 50 for T84, HEK-293 GCC Clone 2, and PHTX-17C, respectively. Mice were then administered a single IV dose of [68Ga]MLN6907 DP (0.01, 0.02, 0.15, or 0.2 μg) with increasing concentrations of MLN6907 DSP (0, 1.8, 1.85, or 20 μg). Tumor, blood, liver, and kidneys were collected at 1 hour postdose and assayed for ^68Ga activity using a gamma counter; uptake and biodistribution of [^68Ga]MLN6907 DP was determined as the % ID/g.
The addition of MLN6907 DSP had no major effect on [^68Ga]MLN6907 DP uptake in non-GCC-expressing tissues (blood, liver, and kidney). […]

[7] = Pharmacokinetics and ex vivo biodistribution of 225Ac-labeled peptide in naive CB-17 SCID mice
Protocol: This study assays the pharmacokinetics and ex vivo biodistribution of Actinium-225 labeled STp(5-18) peptide, along with the daughter nuclides, in naïve CB-17 SCID mice.
All naïve mice were randomized into n=4×3 groups. All mice were administered 100 uL of formulated 225Ac-DOTA-Ahx-STp(5-18), IV, within 45 minutes of purification (100 uL=444598 CPM counted on the 225Ac window of the gamma counter). A subset of animals from each group was sacrificed at each of the following time points post injection: 0.5, 1, 4, and 24 hours. The following tissues were resected for weight and gamma counting from each carcass: blood, heart, kidney, liver, lungs, spleen, small intestine, large intestine, stomach. The ^225Ac content was determined at least 4 h after collection, to allow for ^213Bi/^225Ac equilibrium. To analyze daughter activities, the counter was calibrated and windows were set to collect gamma events from ^221Fr (g, 218 keV) for actinium quantitation and ^213Bi (g, 440 keV). Samples were counted within 20-50 min post-harvest and again after 213Bi/225Ac equilibrium had been reached (>4 h).
The gamma count runs were acquired according to the procedure described by Song et al. Specifically, samples were measured at three times immediately following sacrifice (˜30, 45, 60 minutes) in ^221Fr and ^213Bi windows and again at equilibrium (24 h post-sacrifice).
Data, including weight, time point, injection times, sacrifice times, subject ID, tissue, and CPM were read in automatically from the equilibrium ^225Ac spreadsheet. […] Percent injected dose per gram was computed as
Data, including weight, time point, injection times, sacrifice times, subject ID, tissue, and CPM were read in automatically from the ^213Bi and ^221Fr spreadsheets, including CPM measurements for three time points immediately following sacrifice (˜30, 45, 60 minutes post-injection). […] This CPM_0 was compared to the measured CPM at equilibrium decay-corrected to time-of-sacrifice (CPM_eq) both in terms of absolute difference and ratio. […]

CC(C)C[C@@H]1NC(=O)[C@H](CCC(=O)O)NC(=O)[C@@H]2CSSC[C@@H]3NC(=O)[C@H](C)NC(=O)[C@@H]4CCCN4C(=O)[C@H](CC(N)=O)NC(=O)[C@H](CSSC[C@H](NC(=O)CCCCCNC(=S)Nc4ccc(C[C@H]5CN(CC(=O)O)CCN(CC(=O)O)CCN(CC(=O)O)CCN5CC(=O)O)cc4)C(=O)N2)NC(=O)[C@H](CSSC[C@@H](C(=O)N[C@@H](Cc2ccc(O)cc2)C(=O)O)NC(=O)CNC(=O)[C@H](C)NC3=O)NC1=O [MLN6907 DSP]
increase in solubility ([1]; addition of ethanol (range of 5-25%)): up to 10 fold
solubility ([1]; bulk DSP1): ~100 µg/mL (≈ 47.4 µM)
increase in solubility ([1]; heating 60° for 10 minutes, or shaking 45 minutes at room temperature): 5 to 7 fold
increase in solubility ([1]; increasing the pH of the solvent from 3.5 to 5): about 19 fold
solubility ([1]; pH 5, after increasing pH from 3.5 to 5): > 1000 µg/mL
allowable phase 1 clinical starting mass dose ([2]; human equivalent dose of one-tenth of the rat NOEL (0.25 mg/kg)): 282 µg
no-observed-effect level (NOEL) ([2]; rats): 0.25 mg/kg
CNS, cardiovascular or respiratory safety pharmacology endpoints ([2]; rats, 2-week repeat-dose): no effect
immunogenicity, rodent antipeptide antibody (RAPA) ([2]; rats, any dose): no immunogenicity response
local tolerance, injection site findings ([2]; rats, dose formulations up to 0.10 mg/mL): nor were there any injection site findings
toxicity findings ([2]; rats, doses up to 0.25 mg/kg IV Days 1, 4, 8, 11, 14, 14-day recovery): no findings indicative of toxicity
accumulation in the plasma ([2]; rats, toxicokinetics): no marked accumulation
margin of allowable starting dose over proposed human mass dose ([2]; vs proposed human mass dose range of up to 43.4 μg on a mg/kg basis): greater than 67 fold
half-life [3]: 26 min
no-observed-effect level (NOEL) [4]: 0.25 mg/kg
CNS, cardiovascular or respiratory safety pharmacology endpoints ([4]; 2-week repeat-dose): no effect
immunogenicity, primate antipeptide antibody (PAPA) ([4]; any dose): no immunogenicity response
local tolerance, injection site findings ([4]; dose formulations up to 0.10 mg/mL): nor were there any injection site findings
toxicity findings ([4]; doses up to 0.25 mg/kg IV Days 1, 4, 8, 11, 14, 14-day recovery): no findings indicative of toxicity
accumulation in the plasma ([4]; toxicokinetics): no marked accumulation
pIC50 [5]: 8.32
pIC50 ([5]; IC50, inhibition of [111In]MLN6907 binding, untreated MLN6907 DSP (without chelation reaction conditions), HEK-293 GCC Clone 2 cells): 8.34
pEC50 [6]: 5.25 to 7.01

CC(C)C[C@@H]1NC(=O)[C@H](CCC(=O)O)NC(=O)[C@@H]2CSSC[C@@H]3NC(=O)[C@H](C)NC(=O)[C@@H]4CCCN4C(=O)[C@H](CC(N)=O)NC(=O)[C@H](CSSC[C@H](NC(=O)CCCCCNC(=S)Nc4ccc(C[C@H]5CN(CC(=O)O)CCN(CC(=O)O)CCN(CC(=O)O)CCN5CC(=O)O)cc4)C(=O)N2)NC(=O)[C@H](CSSC[C@@H](C(=O)N[C@@H](Cc2ccc(O)cc2)C(=O)O)NC(=O)CNC(=O)[C@H](C)NC3=O)NC1=O [^225Ac-DOTA-Ahx-STp(5-18), metal not drawn]
accumulation of the 221Fr or 213Bi daughter decay products ([7]; any of the tissues except kidney): substantially no accumulation
accumulation in the other tissues measured ([7]; naive CB-17 SCID mice, IV): no substantial accumulation
uptake in the kidney ([7]; naive CB-17 SCID mice, IV): high uptake
